Assay results published in US11655207B2, “Pharmaceutically acceptable salt of alkylcarbamoyl naphthalenyloxy octenoylhydroxy amide or of derivative thereof and method for preparing same” (CRYSTALGENOMICS, INC., priority 2017, dated 2023).
Read-outs that look alike come from different tables or passages of the source.

**Q.** Which Content (bottle package, 1 day, Room temperature) does the source give for `CN(C)CCCNC(=O)/C(=C/CCCCC(=O)NO)COc1cccc2ccccc12.O=C(O)C(O)C(O)C(=O)O` [Example 1, Alkylcarbamoyl Naphthalenyloxy Octenoyl Hydroxyamide Tartaric Acid Salt] here?
**A.** The Content was 99.3.

**Q.** What about the Content (bottle package, 1 day, Severe (60±2° C.)) of the same compound?
**A.** Its Content is 101.2.

**Q.** And the Content (bottle package, 3 days, Room temperature)?
**A.** Its Content is 99.5.

**Q.** What about the Content (bottle package, 7 days, Room temperature) of the same compound?
**A.** The Content was 99.4.

**Q.** And the Content (open state, 1 day, Long-term (25±2° C. and 60±5% RH))?
**A.** The Content was 99.9.

**Q.** And the Content (open state, 1 day, Room temperature)?
**A.** Its Content is 101.0.

**Q.** And the Content (open state, 1 day, Severe (60±2° C.))?
**A.** The Content was 101.1.

**Q.** And the Content (open state, 3 days, Room temperature)?
**A.** The Content was 101.9.
